{
  "source": "patent US5444042A",
  "about": "“Method of treatment of neurodegeneration with calpain inhibitors” (Cortex Pharmaceuticals, priority 1994, dated 1995)",
  "key": {"Papain": {"biological_target": "T1, Papain (Carica papaya, UniProt P00784)", "T1 sequence (P00784 134-345)": "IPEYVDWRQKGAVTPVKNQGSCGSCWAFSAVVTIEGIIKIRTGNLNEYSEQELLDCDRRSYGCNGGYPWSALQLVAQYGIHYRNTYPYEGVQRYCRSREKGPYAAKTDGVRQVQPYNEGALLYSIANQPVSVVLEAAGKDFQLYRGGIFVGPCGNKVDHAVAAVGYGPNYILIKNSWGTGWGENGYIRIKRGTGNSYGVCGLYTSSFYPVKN", "experiment": "Papain inhibition, Ki by Dixon plot (Table PKC1)", "format": "biochemical", "settings": "0.05M Tris-HCl pH 7.5, 2 mM EDTA, 5 mM cysteine, 1% DMSO, 25° C., substrate Nα-Benzoyl-Arg-AMC; read-out: Ki P (Papain)", "protocol": "(§1) Our discovery of Peptide Keto-Compounds effective as Calpain Inhibitors was made through assay of the Peptide Keto-Compounds as reversible inhibitors. Various concentrations of inhibitors in dimethylsulfoxide (DMSO) were added to the assay mixture, which contained buffer and substrate. The reaction was started by the addition of the enzyme and the hydrolysis rates were followed spectrophotometrically or fluorimetrically. 88 mM KH2 PO4, 12 mM Na2 HPO4, 1.33 mM EDTA, 2.7 mM cysteine, pH 6.0 was used as a buffer for cathepsin B; and 20 mM Hepes, 10 mM CaCl2, 10 mM β-mercaptoethanol, pH 7.2 buffer was utilized for calpain I and calpain II.\nAll peptide thioester hydrolysis rates were measured with assay mixtures containing 4,4'-dithiodipyridine [e324=19800 M-1 cm-1; Grasetti & Murray, Arch. […] Enzymatic hydrolysis rates were measured at various substrate and inhibitor concentrations, and Ki values were determined by Dixon plot.\nThe inhibition constants for papain shown in Table PKC1 were measured in 0.05M Tris-HCl, pH 7.5 buffer, containing 2 mM EDTA, 5 mM cysteine (freshly prepared), 1% DMSO, at 25° C., using N^α -Benzoyl-Arg-AMC as a substrate, except that those values of inhibition constants for papain marked with an \"e\" in Table PKC1 were measured in 50 mM Tris-HCl, pH 7.5 buffer, containing 20 mM EDTA, 5 mM cysteine, 9% DMSO, at 25° C., using N^α -Benzoyl-Arg-NA as a substrate."}, "Calpain within platelets": {"test_system": "Calpain within platelets", "experiment": "Platelet membrane permeation assay, spectrin proteolysis (Examples 4A, 4B)", "format": "cell-based, rat", "settings": "100 μM, A23187 1 μM", "protocol": "Platelets were isolated by a modification of the method of Ferrell and Martin, J Biol. Chem., 264:20723-20729 (1989), the disclosure of which is hereby incorporated by reference. Blood (15-20 ml) was drawn from male Sprague-Dawley rats into 100 mM EDTA-citrate containing 10 units heparin, and centrifuged 30 minutes at 1600 rpm at room temperature. The plasma was resuspended in 15 ml buffer 1 (136 mM NaCl, 2.7 mM KCl, 0.42 mM NaH2 PO4, 12 mM NaHCO3, 2 mM MgCl2, 2 mg/ml BSA (Sigma), 5.6 mM glucose, 22 mM Na3 Citrate pH 6.5) and platelets were isolated at 2200 rpm at room temperature of 25 minutes. Platelets were resuspended to 10^7 cells/ml in buffer 2 (136 mM NaCl, 2.7 mM KCl, 0.42 NaH2 PO4, 12 mM NaHCO3, 2 mM MgCl, 1 mg/ml BSA, 5.6 mM glucose, 20 mM HEPES pH 7.4) and allowed to \"rest\" for a minimum of 10 minutes at room temperature before use.\nPlatelets were incubated for 5 minutes in the presence of inhibitor. In order to provide sufficient intracellular calcium to activate Calpain, the calcium ionophore A23187 was added to a final concentration of 1 μM. After a further 5 minute incubation, the platelets were harvested by centrifugation (1 min 10,000×g) and resuspended in 10% sodium dodecyl sulfate, 10 mM Tris pH=8.0, 5% β-mercaptoethanol, 0.02% bromophenol blue, and heated to 95° C. for 5 min. […] Spectrin immunoreactivity on the filters was quantitated by densitometry. […]"}, "Cathepsin B": {"biological_target": "Cathepsin B (Bos taurus, UniProt P07688)", "experiment": "Cathepsin B inhibition, Z-Arg-Arg-AFC (Table PKC1)", "format": "biochemical", "settings": "pH 6.0 phosphate buffer, substrate Z-Arg-Arg-AFC; read-out: Ki CB (Cathepsin B)", "protocol": "as §1\nAll peptide thioester hydrolysis rates were measured with assay mixtures containing 4,4'-dithiodipyridine [e324=19800 M-1 cm-1; Grasetti & Murray, Arch. Biochem. Biophys. 119, pp 41-49 (1967)]. Papain was assayed with Bz-Arg-AMC or Bz-Arg-NA [Kanaoka et al., Chem. Pharm. Bull. 25, 3126-3128 (1977)], and the AMC (7-amino-4-methylcoumarin) release was followed fluorimetrically (excitation at 380 nm, and emission at 460 nm). Cathepsin B was assayed with Z-Arg-Arg-AFC [Barrett and Kirschke, Methods Enzymol. […] Enzymatic hydrolysis rates were measured at various substrate and inhibitor concentrations, and Ki values were determined by Dixon plot."}, "[1]": {"test_system": "Calpain in crude brain extracts", "experiment": "Ca2+-stimulated spectrin proteolysis in crude brain extracts (Example 2)", "format": "biochemical", "settings": "100 μM", "protocol": "The activity of Calpain in crude brain extracts was measured by examining the Ca^2+ -stimulated proteolysis of the endogenous substrate spectrin. Brain tissue was homogenized in 10 mM Tris pH=7.4, 0.32M sucrose, 1 mM EGTA, 1 mM dithiothreitol and the nuclei and debris removed by low speed centrifugation. Various Calpain Inhibitors were added to the supernatant in a DMSO vehicle and a calcium salt (final effective concentration about 1.2 mM) added to start the reaction. Proteolysis of spectrin was evaluated by western blot as described by Seubert, et at. (Brain Research, 459:226-232, 1988), the disclosure of which is hereby incorporated by reference. Briefly, a known quantity of a spectrin-containing sample treated with Calpain is separated by SDS-PAGE and immunoblotted with anti-spectrin antibody. […] An examplary method for quantitating BDP's is to assay Spectrin BDP's by homogenizing brain parts in 20 mM Tris pH=7.2, 0.32M sucrose, 50 μM Ac-Leu-Leu-nLeu-H on ice. […] The proteins in the gels are transferred to nitrocellulose and the spectrin and BDP's detected using a rabbit polyclonal anti-spectrin antibody and established immunodetection methods. The amount of spectrin and BDP's in each sample can be quantitated by densitrometric scanning of the developed nitrocellulose. […]"}},
  "note": "pKi: −log10 of the molar value.",
  "data": [
    {"smiles": "CCOC(=O)C(=O)C(C)NC(=O)[C@H](C)NC(=O)[C@H](C)NC(=O)[C@H](C)NC(=O)OCc1ccccc1", "note": "(mixture of isomers) [Z-Ala-Ala-Ala-DL-Ala-COOEt, Z-Ala-Ala-Ala-DL-Ala-CO2 Et]", "values": [
      {"measurement": "pKi", "setting": "Papain", "value": 5.68},
      {"measurement": "inhibition of Calpain within platelets", "setting": "Calpain within platelets", "value": "significant inhibition"},
      {"measurement": "pKi", "setting": "Cathepsin B", "value": 5.00},
      {"measurement": "inhibition of spectrin proteolysis in crude brain extracts", "setting": "[1]", "value": "significant inhibition"}
    ]}
  ]
}
